From ChEMBL document CHEMBL3436046, “Predictive model for L-type channel inhibition: multichannel block in QT prolongation risk assessment” (J Appl Toxicol, 2012)

Sequences of proteins named here, by UniProt entry; tags and fusion partners are left off.
UniProt O35505, whole entry: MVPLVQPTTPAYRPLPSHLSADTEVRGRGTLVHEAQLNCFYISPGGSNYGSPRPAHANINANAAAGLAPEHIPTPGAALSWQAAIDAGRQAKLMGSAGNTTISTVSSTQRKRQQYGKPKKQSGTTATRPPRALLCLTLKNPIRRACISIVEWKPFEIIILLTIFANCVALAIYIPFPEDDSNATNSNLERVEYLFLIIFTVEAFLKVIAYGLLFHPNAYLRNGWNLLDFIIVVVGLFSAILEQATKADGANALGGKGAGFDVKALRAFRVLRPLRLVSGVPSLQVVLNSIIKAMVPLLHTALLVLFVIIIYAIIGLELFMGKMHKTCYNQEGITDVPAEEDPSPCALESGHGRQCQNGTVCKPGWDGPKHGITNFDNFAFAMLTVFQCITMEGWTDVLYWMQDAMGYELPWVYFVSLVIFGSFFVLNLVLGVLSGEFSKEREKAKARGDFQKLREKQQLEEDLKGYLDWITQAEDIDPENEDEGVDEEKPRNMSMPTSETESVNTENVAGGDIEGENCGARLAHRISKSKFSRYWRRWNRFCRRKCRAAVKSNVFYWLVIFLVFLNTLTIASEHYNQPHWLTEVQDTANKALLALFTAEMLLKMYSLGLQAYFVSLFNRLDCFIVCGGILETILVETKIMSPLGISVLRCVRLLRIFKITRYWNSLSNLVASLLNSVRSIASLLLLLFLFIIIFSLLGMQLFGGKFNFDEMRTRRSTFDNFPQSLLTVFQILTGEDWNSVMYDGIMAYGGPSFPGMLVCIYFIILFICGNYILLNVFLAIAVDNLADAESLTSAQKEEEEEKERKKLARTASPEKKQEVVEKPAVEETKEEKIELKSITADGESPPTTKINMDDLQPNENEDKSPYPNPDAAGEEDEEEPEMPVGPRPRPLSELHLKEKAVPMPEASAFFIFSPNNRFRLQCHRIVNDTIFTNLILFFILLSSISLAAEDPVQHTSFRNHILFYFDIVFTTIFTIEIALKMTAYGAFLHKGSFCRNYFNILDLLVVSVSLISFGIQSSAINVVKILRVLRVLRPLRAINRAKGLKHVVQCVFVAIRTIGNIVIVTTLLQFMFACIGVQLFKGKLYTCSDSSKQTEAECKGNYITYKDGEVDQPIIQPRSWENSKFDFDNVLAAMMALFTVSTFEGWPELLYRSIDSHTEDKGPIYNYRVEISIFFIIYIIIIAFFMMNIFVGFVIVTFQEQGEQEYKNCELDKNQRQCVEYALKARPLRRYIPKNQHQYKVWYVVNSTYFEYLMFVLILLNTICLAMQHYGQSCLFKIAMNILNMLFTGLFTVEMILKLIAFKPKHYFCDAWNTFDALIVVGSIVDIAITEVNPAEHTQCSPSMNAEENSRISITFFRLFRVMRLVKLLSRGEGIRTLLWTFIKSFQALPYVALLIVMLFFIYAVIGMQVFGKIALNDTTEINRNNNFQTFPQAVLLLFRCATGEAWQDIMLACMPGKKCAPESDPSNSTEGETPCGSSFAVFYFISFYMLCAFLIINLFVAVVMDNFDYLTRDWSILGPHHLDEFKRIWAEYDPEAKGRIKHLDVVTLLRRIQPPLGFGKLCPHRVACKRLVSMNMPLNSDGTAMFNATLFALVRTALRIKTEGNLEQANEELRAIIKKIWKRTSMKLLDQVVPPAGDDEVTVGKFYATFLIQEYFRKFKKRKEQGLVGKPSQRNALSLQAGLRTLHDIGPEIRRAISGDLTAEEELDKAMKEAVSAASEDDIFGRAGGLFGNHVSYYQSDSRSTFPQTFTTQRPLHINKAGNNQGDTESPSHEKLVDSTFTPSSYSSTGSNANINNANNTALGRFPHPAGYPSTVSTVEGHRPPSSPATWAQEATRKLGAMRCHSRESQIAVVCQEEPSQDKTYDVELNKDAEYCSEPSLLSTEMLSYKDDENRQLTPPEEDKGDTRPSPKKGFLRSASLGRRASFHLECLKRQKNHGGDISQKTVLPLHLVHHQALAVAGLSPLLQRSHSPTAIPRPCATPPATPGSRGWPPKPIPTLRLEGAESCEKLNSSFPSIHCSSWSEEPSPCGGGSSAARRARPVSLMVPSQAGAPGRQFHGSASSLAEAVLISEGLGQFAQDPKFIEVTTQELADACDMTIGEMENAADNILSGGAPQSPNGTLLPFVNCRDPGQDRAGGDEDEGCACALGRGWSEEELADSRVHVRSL
UniProt Q13936, whole entry: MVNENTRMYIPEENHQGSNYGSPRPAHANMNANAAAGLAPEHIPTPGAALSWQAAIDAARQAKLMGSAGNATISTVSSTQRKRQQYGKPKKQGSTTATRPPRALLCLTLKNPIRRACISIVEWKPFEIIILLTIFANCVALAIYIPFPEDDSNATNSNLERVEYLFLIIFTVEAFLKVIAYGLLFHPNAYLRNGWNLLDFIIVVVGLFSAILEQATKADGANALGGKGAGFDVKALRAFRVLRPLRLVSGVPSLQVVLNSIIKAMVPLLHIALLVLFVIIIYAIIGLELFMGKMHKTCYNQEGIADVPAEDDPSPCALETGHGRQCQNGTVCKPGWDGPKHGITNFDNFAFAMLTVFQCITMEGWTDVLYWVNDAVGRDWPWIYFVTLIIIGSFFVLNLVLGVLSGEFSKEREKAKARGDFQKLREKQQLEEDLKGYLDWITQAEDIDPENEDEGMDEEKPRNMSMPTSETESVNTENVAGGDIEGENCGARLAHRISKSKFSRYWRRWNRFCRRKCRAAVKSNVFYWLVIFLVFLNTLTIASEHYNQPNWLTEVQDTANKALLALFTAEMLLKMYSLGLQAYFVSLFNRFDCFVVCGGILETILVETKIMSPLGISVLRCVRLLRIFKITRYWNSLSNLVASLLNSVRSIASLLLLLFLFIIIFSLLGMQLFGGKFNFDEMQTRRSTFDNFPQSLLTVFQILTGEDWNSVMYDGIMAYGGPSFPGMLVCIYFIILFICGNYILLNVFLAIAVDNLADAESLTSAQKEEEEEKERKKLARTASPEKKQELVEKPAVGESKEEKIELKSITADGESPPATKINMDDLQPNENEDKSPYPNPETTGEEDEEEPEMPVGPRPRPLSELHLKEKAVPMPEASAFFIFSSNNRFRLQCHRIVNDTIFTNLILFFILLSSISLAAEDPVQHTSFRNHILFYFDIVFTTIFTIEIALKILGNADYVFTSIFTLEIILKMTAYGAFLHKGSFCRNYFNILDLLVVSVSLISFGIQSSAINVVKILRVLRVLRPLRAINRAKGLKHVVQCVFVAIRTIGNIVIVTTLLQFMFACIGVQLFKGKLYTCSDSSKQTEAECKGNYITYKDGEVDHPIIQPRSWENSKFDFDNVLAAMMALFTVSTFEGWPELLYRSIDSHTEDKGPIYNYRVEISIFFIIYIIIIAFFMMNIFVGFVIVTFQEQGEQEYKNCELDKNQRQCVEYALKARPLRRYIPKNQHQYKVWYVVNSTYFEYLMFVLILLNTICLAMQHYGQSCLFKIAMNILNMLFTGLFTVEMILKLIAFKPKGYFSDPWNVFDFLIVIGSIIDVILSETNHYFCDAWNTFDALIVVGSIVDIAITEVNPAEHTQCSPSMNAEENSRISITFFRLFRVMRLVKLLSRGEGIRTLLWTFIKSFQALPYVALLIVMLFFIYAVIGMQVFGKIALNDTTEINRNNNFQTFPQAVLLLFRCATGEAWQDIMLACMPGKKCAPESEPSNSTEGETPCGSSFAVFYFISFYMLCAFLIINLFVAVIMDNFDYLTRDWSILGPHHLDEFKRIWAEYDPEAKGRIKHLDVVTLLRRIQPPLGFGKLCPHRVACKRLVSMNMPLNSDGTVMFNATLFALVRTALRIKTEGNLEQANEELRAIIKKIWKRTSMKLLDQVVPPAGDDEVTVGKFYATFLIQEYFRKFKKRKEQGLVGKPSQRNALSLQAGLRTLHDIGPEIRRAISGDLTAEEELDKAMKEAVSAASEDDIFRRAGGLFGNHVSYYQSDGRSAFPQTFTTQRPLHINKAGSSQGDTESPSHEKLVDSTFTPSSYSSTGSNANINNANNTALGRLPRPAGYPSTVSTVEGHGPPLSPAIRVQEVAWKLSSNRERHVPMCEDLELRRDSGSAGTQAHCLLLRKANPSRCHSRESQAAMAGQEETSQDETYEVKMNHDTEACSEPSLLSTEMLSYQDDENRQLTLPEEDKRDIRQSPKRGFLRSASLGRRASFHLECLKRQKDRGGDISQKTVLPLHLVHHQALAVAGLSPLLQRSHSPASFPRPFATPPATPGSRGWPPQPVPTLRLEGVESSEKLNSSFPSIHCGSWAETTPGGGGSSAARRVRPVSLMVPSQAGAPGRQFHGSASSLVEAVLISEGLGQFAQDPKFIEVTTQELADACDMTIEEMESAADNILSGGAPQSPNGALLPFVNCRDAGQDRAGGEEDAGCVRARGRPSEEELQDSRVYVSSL

Legend:
[1] = molecular target: T1, Voltage-dependent L-type calcium channel subunit alpha-1C (Cavia porcellus, UniProt O35505)
[2] = molecular target: T1, Voltage-dependent L-type calcium channel subunit alpha-1C; remark: listed apart in the source
[3] = molecular target: T1, Voltage-dependent L-type calcium channel subunit alpha-1C; remark: listed apart in the source
[4] = molecular target: Voltage-dependent L-type calcium channel subunit alpha-1C (Homo sapiens, UniProt Q13936)

SMILES	IC50 [1] [µM]	IC50 [2] [µM]	IC50 [3] [µM]	IC50 [4] [µM]
COc1ccc([C@@H]2Sc3ccccc3N(CCN(C)C)C(=O)[C@@H]2OC(C)=O)cc1 [DILTIAZEM]	0.63	30	74	–
CC(C)COCC(CN(Cc1ccccc1)c1ccccc1)N1CCCC1 (centres undefined) [BEPRIDIL]	–	–	–	1.4
